Bioassay records (PubChem)
G9a inh: blocks human histone lysine methyltransferase G9a; Q96KQ7; G9a H3K9 monomethylation, AlphaScreen, 2 h; Potency, µM (titrated, usually from 102 µM), most hits filed as inhibitors; hit rate 8.8% among 350,000; note: nearly all actives have a fitted effect of over 75% in size
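Signal arises when biotinylated H3K9 peptide, once monomethylated, bridges streptavidin donor and antibody-captured acceptor beads. Enzyme at 20 nM was preincubated 15 min with test compounds; peptide 500 nM and SAM 20 uM then reacted for 2 h.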
Lamin A splicing: LMNA splicing modulation; HeLa LMNA splicing GFP/RFP minigene ratio, 48 h; hit rate 0.01% among 200,000; Potency, µM (series often up to 46.1 µM), actives largely listed as inhibitors; AID 1487; active = well fitted inhibition curve with a large enough effect in the signal ratio, with a control signal flat, not every such curve was filed as active; inconclusive = small, poorly fitted or top-dose-only effect, or effect the other way, or a change in a side signal; the % refers to the signal ratio
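S3 HeLa cells stably expressing lamin A-EGFP splicing minigene plus DsRed2, 600 cells/well, 48 h compound exposure at 37C. Laser-scanning cytometry; analysed as GFP (500-530 nm)/RFP (575-640 nm) total intensity ratio; 0.5% DMSO vehicle.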
miR-21 reporter: miR-21 reporter, rising signal. 340,000 tested, under 10 active. Potency, µM (highest dose often 38.3 µM). HeLa miR-21 FLuc reporter, luciferase, 48 h. AID 2288; active = well fitted rising curve with a large enough effect; inconclusive = small, poorly fitted or top-dose-only effect; inactive = no such curve, though single readings can be large or run the other way;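 further: miR-21 action dims this reporter so a rising signal means less miR-21 action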
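HeLa miR-21-FLuc reporter line, endogenous miR-21; 2000 cells/well in DMEM/10% FBS; compound titration up to ~40uM final, 48 h, 37 degree Celsius; luciferase detection reagent, 15 min lysis, CCD luminescence.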
KDM4E inh: blocks human JMJD2E demethylase activity | B2RXH2 | JMJD2E catalytic domain, FDH-coupled NADH fluorescence (FDH is formaldehyde dehydrogenase) | Potency, µM (top dose mostly 57.1 µM), actives largely listed as inhibitors | hit rate 1.6% among 230,000 | AID 2147; active = well fitted inhibition curve with a large enough effect, not every such curve was filed as active; inconclusive = small, poorly fitted or top-dose-only effect, or another doubt; inactive = no such curve, though single readings can be large or run the other way; note: nearly all actives have a fitted effect of over 50% in size
Sfp inh: Sfp phosphopantetheinyl transferase inhibition | hit rate 3.5% among 310,000 | Potency, µM, actives largely listed as inhibitors | Biochemical Sfp PPTase activity, qHTS | Q9F4F7;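 note: the enzyme is Sfp with the accession as filed and its product quenches rhodamine fluorescence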
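Compounds were incubated with enzyme (final 15 nM) for 15 min at room temperature before substrate addition started the reaction. Fluorescence at 525 nm excitation, 598 nm emission was recorded immediately and after 30 minutes.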
ALDH1A1 block: blocks purified human ALDH1A1 activity | P00352 | Purified ALDH1A1, NADH fluorescence, propionaldehyde substrate | Potency, µM (doses to about 75.3 µM), hits mostly inhibitors | hit rate 7.3% among 220,000; active = well fitted inhibition curve with a large enough effect, not every such curve was filed as active; inconclusive = small, poorly fitted or top-dose-only effect, or another doubt; inactive = no such curve, though single readings can be large or run the other way
A number is an active result; n = inactive; u = inconclusive; x = not tested or not shown; ! = not active in a repeat; [ ] = another dose, or the depositor's remark. Only some compounds are listed: those with a hit (about 13% of all), similar ones and a draw of the others. Unless noted, calls come from the whole dose curve; as a rule, active = well fitted curve in the direction sought with a large enough effect; inconclusive = small, poorly fitted or top-dose-only effect, or another doubt; inactive = no such curve, though single readings can be large; an effect the other way counts as inactive or inconclusive.

SMILES	G9a inh	Lamin A splicing	miR-21 reporter	KDM4E inh	Sfp inh	ALDH1A1 block
O=C(NC1CCCC1)c1ccc2c(c1)N(Cc1ccc(C(F)(F)F)cc1)C(=O)c1ccccc1S2	n	x	n	x	x	x
COc1cccc(S(=O)(=O)Nc2ccc(C(=O)N3CCN(C(=O)c4ccco4)CC3)cc2)c1	n	u	n	n	n	18µM
COc1ccc(N2CCN(C(=O)c3ccc(CNS(=O)(=O)c4cc(C)ccc4C)cc3)CC2)cc1	32µM	x	n	x	n	x
CS(=O)(=O)N1CCC(C(=O)Nc2cc(Cl)c(Cl)cc2Cl)CC1	x	x	n	x	n	x
Cc1nn(CC(=O)N2CCC(C)CC2)c(=O)c2cc3occc3n12	n	x	n	x	x	x
COC(=O)c1cc(Cl)c(NC(=O)c2ccc(C(C)(C)C)cc2)cc1OC	n	u	n	u	14µM	u
CCc1nc(NCCCCCO)c2nnn(Cc3ccccc3F)c2n1	n	n	n	n	n	1.4µM
Cc1nc(Nc2cccc(C(C)O)c2)c2nnn(Cc3ccccc3F)c2n1 (stereo not drawn)	n	n	n	n	n	4.5µM
C#CCNc1nc(CC)nc2c1nnn2Cc1ccccc1F	n	n	n	n	n	7.9µM
Fc1ccccc1Cn1nnc2c(NCCc3ccccn3)ncnc21	n	n	n	n	n	7.9µM
Fc1cccc(Cl)c1Cn1nnc2c(NCc3ccccn3)ncnc21	n	u	n	n	n	u
Cc1ccccc1OCC(=O)Nc1ccc(C(=O)OCc2cc(=O)n3c(C)csc3n2)cc1	n[12.7 µM]	n	n	x	x	x
Clc1cccc(-c2nc(-c3ccc(-c4nn[nH]n4)cc3)no2)c1	n[0.501 µM]	x	x	x	x	x
Cc1ccc(N=C2NC(=O)S/C2=C\c2ccco2)cc1	u	n	n	n	35µM	n
Cc1ccc(N2C(=O)/C(=C/c3ccco3)SC2=S)cc1	n	n	n	n	u	n
O=C1NC(=Nc2ccccc2)/C(=C/c2ccco2)S1	11µM	u	n	u	22µM	u
O=C(NCc1cc([N+](=O)[O-])ccc1O)c1cccc(NS(=O)(=O)c2ccccc2)c1	n	x	n	x	n	x
O=C(c1ccc(N2C(=O)C3CC=C(Cl)CC3C2=O)cc1)N1CCCCC1 (stereo not drawn)	n[12.7 µM]	n	n	n	n	18µM
O=C(c1ccc(N2C(=O)C3CC=C(Cl)CC3C2=O)cc1)N1CCOCC1 (stereo not drawn)	n	n	n	n	n	n
O=C(CCN1C(=O)C2C3C=CC(C3)C2C1=O)N1CCCCC1 (stereo not drawn)	n	n	n	n	n	n
O=C(CCN1C(=O)C2CC=C(Cl)CC2C1=O)N1CCCCC1 (stereo not drawn)	11µM	n	n	n	89µM	u
COc1cc(NC(=O)c2c(C)nn(-c3ccc(F)cc3)c2-n2cccc2)cc(OC)c1	n	x	n	x	x	x
COc1cccc(CCNC(=O)CC2C(=O)NCCN2Cc2ccc(C)o2)c1 (stereo not drawn)	u	x	n	x	n	x
Cc1noc(C)c1-c1ccc2ncnc(NCc3cccc(-c4ccccc4)c3)c2c1	n[12.7 µM]	x	x	x	n	x
CCCCC12CN3CC(C)(CN(C1)C3c1c(C)[nH]c(=O)[nH]c1=O)C2=O (stereo not drawn)	u	x	n	x	x	x
SMILES	G9a inh	Lamin A splicing	miR-21 reporter	KDM4E inh	Sfp inh	ALDH1A1 block
CCN(CC)c1cc2c(cc1F)c(=O)c(S(=O)(=O)c1ccc(OC)cc1)cn2Cc1ccccc1	n	n	n	x	x	x
O=C1C=C(c2cccs2)CC(c2cccs2)C1n1cnc([N+](=O)[O-])c1 (stereo not drawn)	n	n	n	u	n	28µM
COc1ccc(-c2nc(CSc3nncn4c3cc3sccc34)c(C)o2)cc1OC	n	x	n	x	x	x
O=C(Cc1cc(=O)[nH][nH]1)N/N=C/c1c(F)cccc1Cl	n	u	n	n	n	n
O=C(Cc1cc(=O)[nH][nH]1)N/N=C/c1c(Cl)cccc1Cl	n	n	n	u	50µM	11µM!
O=C(Cc1cc(=O)[nH][nH]1)N/N=C/c1cccc(Cl)c1Cl	n	u	n	4µM!	n	n
CCC(=O)Nc1nnc(S(=O)(=O)N2CCCCCC2)s1	10µM!	n	n	x	n	x
CCCC(=O)Nc1nnc(S(=O)(=O)N2CCCCCC2)s1	13µM	n	n	x	n	x
CSc1ncc(C(=O)Nc2c(C)cccc2C)c(-c2ccccc2)n1	n	n	n	x	x	x
CCN(c1ccc(NC(=O)COC(=O)C(C)N=C2NS(=O)(=O)c3ccccc32)cc1)C(C)C (stereo not drawn)	7.1µM	x	x	x	x	x
CCN(c1ccc(NC(=O)COC(=O)c2ccc(C)s2)cc1)C(C)C	10µM	n	n	n	n	u
Cc1ccc(NC(=O)C(C)N=C2NS(=O)(=O)c3ccccc32)cc1 (stereo not drawn)	n	n	n	n	n	n
CCN(c1ccc(NC(=O)COC(=O)CCc2cc(OC)c(OC)c(OC)c2)cc1)C(C)C	25µM	n[9.22 µM]	n	n	n	18µM
CCCn1nnc(NC(=O)c2ccc(-c3cccc(Cl)c3)o2)n1	n	n	n	u	n	u
Cn1nnc(NC(=O)/C=C/c2ccco2)n1	u	x	n	n	n	x
CCCn1nnc(NC(=S)NC(=O)/C=C/c2ccco2)n1	22µM	x	n	n	56µM	x
CCn1nnc(NC(=S)NC(=O)c2ccc(-c3cccc(Cl)c3)o2)n1	u	x	n	n	50µM	x
CCCn1nnc(NC(=S)NC(=O)C(C)(C)C)n1	2.2µM	n	n	n	50µM	u
